Source: patent US11400102B2, “Treatment for bacterial infections with salicylic acid analogs” (priority 2019, dated 2022)

Columns and labels:
strain growth = settings: 50 μM, FIGS. 34-36
bacterial growth = settings: 0.05 μM to 1000 μM

Compound: Cc1ccc(O)c(C(=O)O)c1 [5-methylsalicylic acid]
- growth of the bacterial strain (strain growth): does not inhibit
- bacterial growth by optical density (bacterial growth): None of the doses of 5-methyl salicylic acid affected bacterial growth
